{
  "sequences": {"note": "The chains behind the UniProt entries cited, without tags or fusion partners.", "UniProt P49841, whole entry": "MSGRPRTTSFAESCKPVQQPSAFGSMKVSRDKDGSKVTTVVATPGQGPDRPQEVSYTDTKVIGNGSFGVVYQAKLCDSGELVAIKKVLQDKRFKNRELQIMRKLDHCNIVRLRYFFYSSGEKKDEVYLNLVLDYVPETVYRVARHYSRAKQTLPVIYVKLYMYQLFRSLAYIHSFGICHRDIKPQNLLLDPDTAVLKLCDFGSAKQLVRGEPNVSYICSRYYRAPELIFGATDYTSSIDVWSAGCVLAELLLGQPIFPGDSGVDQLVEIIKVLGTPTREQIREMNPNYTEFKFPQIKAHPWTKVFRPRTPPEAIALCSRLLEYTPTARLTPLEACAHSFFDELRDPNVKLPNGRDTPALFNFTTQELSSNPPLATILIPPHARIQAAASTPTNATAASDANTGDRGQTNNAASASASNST"},
  "source": "patent US20220160716A1",
  "about": "(SORBONNE UNIVERSITE, priority 2019, published 2022)",
  "key": {"DYRK1A": {"biological_target": "DYRK1A (Homo sapiens, UniProt Q13627)", "experiment": "Protein kinase catalytic activity assay, DYRK1A", "assay_type": "biochemical", "settings": "read-out: IC50 of protein kinases, DYRK1A"}, "GSK3": {"biological_target": "GSK3 (Homo sapiens, UniProt P49841)", "experiment": "Protein kinase catalytic activity assay, GSK3", "assay_type": "biochemical", "settings": "read-out: IC50 of protein kinases, GSK3"}},
  "note": "pIC50: −log10 of the molar value.",
  "data": [
    {"smiles": "CC(Nc1nc(NCc2ccccc2)c2ncn(C(C)C)c2n1)C(=O)O", "note": "(centres unmarked)", "values": [
      {"measurement": "pIC50", "setting": "DYRK1A", "value": "< 5.00"},
      {"measurement": "pIC50", "setting": "GSK3", "value": "< 5.00"}
    ]}
  ]
}
